The list is not random: actives were taken first. Their share in the collection is about 1.7%.
dFosB activator: activators of delta FosB homodimer, primary screen, biochemical, fluorescence polarization, TAMRA-CDK5 oligo, single point | AID 493131, 2011 | purified delta FosB; percent of positive-control signal above neutral wells | Protein FosB (Mus musculus), P13346 | 340,000 compounds, 0.99% hits | activation, % at 25 µM;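 active = mean activation above about 17%, with every replicate also reaching it, limit read from the data, passing the limit was not always enough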
CAL PDZ FP-1: CAL PDZ peptide-binding inhibitors, primary screen, biochemical, fluorescence polarization, Cer-tagged CAL PDZ, HTS | Golgi-associated PDZ and coiled-coil motif-containing protein (Homo sapiens), Q9HD26 | purified CAL PDZ, TMR-peptide fluorescence polarization, 1 h | inhibition, % at 20 µM | 330,000 compounds, 0.02% hits | AID 504414, 2011;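 active = highest replicate inhibition of at least 40%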
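Read-out basis: mP drop reported as inhibition | Assay system: Tagged CAL PDZ protein CerCALP, purified | Benchmarks: Unlabelled peptide for full inhibition, DMSO wells as neutral | Schedule: 1 h incubation at room temperature before polarization reading | Buffer or medium: Sodium phosphate/NaCl buffer pH 7.4 with TCEP, IgG, Thesit | Doses: Single point, 20 µM | Measured by: Fluorescence polarization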
CDK5 p35 inh: inhibitors of human CDK5/p35 kinase, primary screen, biochemical, single concentration | Cyclin-dependent kinase 5 (Homo sapiens) + Cyclin-dependent kinase 5 activator 1 (Homo … | Recombinant CDK5/p35, ADP-Glo luminescence, 60 min | inhibition, % at 10 µM | 330,000 compounds, 0.01% hits | AID 488839, 2010;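 active = highest replicate inhibition of at least 50% and at least 75% of replicates reaching 50%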
DYRK1A inh: rat Dyrk1A kinase inhibitors, primary screen, biochemical, single point, plate reader | 310,000 compounds, 0.43% hits | Dual specificity tyrosine-phosphorylation-regulated kinase 1A (Rattus norvegicus), Q63470 | ADP-Glo luminescence, NFATc1 peptide | inhibition, % at 12.5 µM; in the data active = inhibition above about 50%
UUG fidelity: modulators of start codon recognition fidelity in yeast; S. cerevisiae UUG-firefly luciferase reporter, luminescence/redox ratio; AID 602363; 350,000 tested, 0.13% active; activity score, % at 18.7 µM;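 active = replicate mean at a twofold rise or more, about +100% in these data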;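 also: firefly luciferase made from a UUG start codon reports start codon fidelity; reporter light over untreated wells divided by growth signal over untreated wells; some hits fall short of that in this replicate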
CAL PDZ FP-2: untagged CAL PDZ binding inhibitors, primary screen, biochemical, fluorescence polarization, HTS | Golgi-associated PDZ and coiled-coil motif-containing protein (Homo sapiens), Q9HD26 | purified CAL PDZ, TMR-peptide fluorescence polarization, 1 h | inhibition, % at 24.9 µM | 300,000 compounds, 0.92% hits | AID 602252, 2012;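 active = mean inhibition of at least 30% with at least half of replicates also reaching 30%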
Hits are given with their value; i = inactive; nt = no result given.

SMILES	dFosB activator	CAL PDZ FP-1	CDK5 p35 inh	DYRK1A inh	UUG fidelity	CAL PDZ FP-2
CCNC(=O)Nc1ccc2c(c1)C(=O)N(C)[C@@H]1CC[C@@H](CC(=O)NCc3cccc(F)c3)O[C@H]1CO2	nt	nt	nt	nt	i	nt
COc1ccc(CN(C)C[C@H]2Oc3ccc(NC(=O)NC(C)C)cc3CC(=O)N([C@H](C)CO)C[C@H]2C)cc1	nt	nt	nt	nt	i	nt
c1cc2c3c(cccc3c1)NC1(CCC3(CC1)Nc1cccc4cccc(c14)N3)N2	i	i	i	nt	i	i
c1cc2c3c(cccc3c1)NC1(CCCCC1)N2	40.3	i	i	i	i	i
CC1=Nc2cccc3cccc(c23)N1	i	nt	i	i	i	i
c1cc2c3c(cccc3c1)NC1(CCCCCC1)N2	22.5	i	i	i	i	i
S=c1nc[nH]c2c1ncn2-c1ccccc1	i	i	i	i	i	48.1
Cc1ccc(/C(=N\S(=O)(=O)c2ccc(Br)cc2)Nc2ccccc2C)cc1	i	i	i	i	i	64.9
Cc1ccccc1N/C(=N/S(=O)(=O)c1ccccc1)c1ccc(F)cc1	i	i	i	i	nt	i
C[C@@H]1CN([C@@H](C)CO)C(=O)c2cc(NC(=O)Nc3cccc4ccccc34)ccc2O[C@@H](C)CCCCO[C@H]1CN(C)CC1CCCCC1	nt	nt	nt	nt	i	nt
Cc1cc(Nc2ccccc2Cl)nc(-c2ccccc2O)n1	i	nt	i	i	i	57.1
COc1ccccc1S(=O)(=O)N[C@H]1C=C[C@@H](CC(=O)NCc2cccc(F)c2)O[C@H]1CO	nt	nt	nt	nt	i	nt
COC(=O)c1ccc(Cn2nc(C)cc2C)cc1	i	nt	i	i	i	112.1
Cc1noc(C)c1COc1ccc(C(=O)OC(C)C(=O)Nc2ccc(S(=O)(=O)N3CCOCC3)cc2)cc1 (configuration not stated)	i	i	i	i	nt	54.2
Cc1ccc(OCCCCn2ccnc2C)c(C)c1	i	i	i	i	i	79.0
CO[C@H]1CN(C)C(=O)c2ccc(NC(=O)C3CCCCC3)cc2OC[C@@H](C)N(C)C[C@@H]1C	nt	nt	nt	nt	i	nt
COc1ccc(Nc2nc(NCCCN3CCOCC3)nc(N)c2[N+](=O)[O-])cc1	i	i	i	i	nt	i
Nc1nc(NCCCN2CCOCC2)nc(Nc2ccccc2F)c1[N+](=O)[O-]	25.3	i	i	i	nt	i
Nc1nc(NCCCN2CCOCC2)nc(Nc2ccc(F)cc2)c1[N+](=O)[O-]	30.8	i	i	i	nt	i
Nc1nc(NCCCN2CCOCC2)nc(Nc2cccc(F)c2)c1[N+](=O)[O-]	25.8	i	i	i	nt	i
Nc1nc(Nc2cccc(F)c2)nc(N2CCOCC2)c1[N+](=O)[O-]	i	i	i	i	i	i
Cc1cccc(Nc2nc(NCCCN3CCOCC3)nc(N)c2[N+](=O)[O-])c1	36.9	i	i	nt	i	i
C[C@H]1CN([C@@H](C)CO)C(=O)c2cc(NC(=O)Nc3ccc4c(c3)OCO4)ccc2O[C@H]1CN(C)Cc1ccc(-c2ccccc2)cc1	nt	nt	nt	nt	i	nt
Cc1ccc(Nc2nc(NCC3CCCO3)nc(N)c2[N+](=O)[O-])cc1C (configuration not stated)	i	i	nt	i	i	30.5
COc1cccc(NC(=O)N[C@@H]2CC[C@@H](CC(=O)Nc3ccccc3)O[C@@H]2CO)c1	nt	nt	nt	nt	i	nt
Cc1c(N2C(=O)c3ccc(Br)cc3C2=O)c(=O)n(-c2ccccc2)n1C	i	i	i	i	i	36.3
COc1ccc(OCC(O)CN(C)C(=O)/C=C/c2cccc([N+](=O)[O-])c2)cc1 (configuration not stated)	i	i	i	i	nt	86.2
CCSc1ccccc1C(=O)NCCc1ccccc1	i	i	i	i	nt	45.5
O=C(NCCc1ccccc1)c1ccccc1SCC(=O)N1CCCC1	i	i	i	i	i	i
Cc1ccc(NC(=O)COc2ccccc2C(=O)NCCc2ccccc2)cc1	i	i	i	i	i	72.0
